Reference: patent US6951953B2, “Tumor selective and biodegradable polyphosphazene-platinum(II) conjugate antitumor agent, and preparation method thereof” (EWHA Womans University, priority 2003, dated 2005)

Test system: B16F10 melanoma cells
Conditions: C57 BL/6N mice with B16F10 melanoma, Pt by ICP-MS, muscle as normal tissue
[1] = 2 hours after 20 mg/kg tail vein injection
[2] = 24 hours after 20 mg/kg tail vein injection

Substance | TTR values (tumor tissue/normal tissue distribution) [1] | TTR values (tumor tissue/normal tissue distribution) [2]
poly{[methoxy poly(ethylene glycol)550][glycylglutamato-trans(±trans-(±)-1,2-diaminocyclohexaneplatinum(II)]phosphazene}, {NP(MPEG350)1.12[(GlyGlu)Pt(dach)]0.88}n [Example 7] | 3.8 | 7.4
poly{[methoxy poly(ethylene glycol)350][glycylglutamato-trans-(±)-1,2-diaminocyclohexaneplatinum(II)]phosphazene}, {NP(MPEG350)1.2[(GlyGlu)Pt(dach)]0.8}n [Example 2] | 4.8 | 3.6
pol{[methoxy poly(ethylene glycol)350][glycylglutamato-trans-(±)-1,2-diaminocyclohexaneplatinum(II)]phosphazene}, {NP(MPEG350)1.2[(GlyGlu)Pt(dach)]0.8}n [Example 4] | 2.5 | 4.0
poly{[methoxy poly(ethylene glycol)350][glycylglutamato-trans-(±)-1,2-diaminocyclohexaneplatinum(II)]phosphazene}, {NP(MPEG350)1.5[(GlyGlu)Pt(dach)]0.5}n [Example 1] | 2.8 | 5.2

Where two headings read alike, the source gives them in different places.
